The chains behind the UniProt entries cited, without tags or fusion partners.
UniProt Q99873, whole entry: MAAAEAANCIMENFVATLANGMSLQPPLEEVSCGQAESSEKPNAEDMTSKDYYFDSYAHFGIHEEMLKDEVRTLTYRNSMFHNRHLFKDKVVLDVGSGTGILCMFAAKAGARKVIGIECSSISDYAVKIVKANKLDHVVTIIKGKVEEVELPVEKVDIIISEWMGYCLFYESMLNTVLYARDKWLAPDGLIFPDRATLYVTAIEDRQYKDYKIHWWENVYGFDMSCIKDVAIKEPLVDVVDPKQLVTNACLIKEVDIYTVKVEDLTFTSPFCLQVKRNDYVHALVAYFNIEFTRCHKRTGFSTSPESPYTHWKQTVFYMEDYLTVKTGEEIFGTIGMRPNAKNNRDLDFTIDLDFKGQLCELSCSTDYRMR

In ChEMBL document CHEMBL1156943, “Toward the development of potent and selective bisubstrate inhibitors of protein arginine methyltransferases” (Bioorg Med Chem Lett, 2010):

Molecular target: Protein arginine N-methyltransferase 1 (Homo sapiens, UniProt Q99873)
Assay: Inhibition of GST-fused human recombinant PRMT1 after 90 mins by SDS-PAGE based scintillation counting

C[S+](CC[C@H](N)C(=O)[O-])C[C@H]1O[C@@H](n2cnc3c(N)ncnc32)[C@H](O)[C@@H]1O (some centres not stated) [ADEMETIONINE] gave an IC50 of 12 µM.

Nc1ncnc2c1ncn2[C@@H]1O[C@H](C[C@@H](N)CC[C@H](N)C(=O)O)[C@@H](O)[C@H]1O [SINEFUNGIN] was tested, and the IC50 was less than 1 µM.
